Measurements taken from PubChem BioAssay AID1497 (Sanford-Burnham Center for Chemical Genomics, 2009).
The list shows a part of the results, in another mix than the full data. The source made the active and inactive calls.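 How the source made its calls: active means primary inhibition of 50% or more at 10 µM, then 40% or more on retest; inactive means the rest.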

Chains of the proteins cited; added tags and fusions are not shown.
UniProt P05107, whole entry, looked up: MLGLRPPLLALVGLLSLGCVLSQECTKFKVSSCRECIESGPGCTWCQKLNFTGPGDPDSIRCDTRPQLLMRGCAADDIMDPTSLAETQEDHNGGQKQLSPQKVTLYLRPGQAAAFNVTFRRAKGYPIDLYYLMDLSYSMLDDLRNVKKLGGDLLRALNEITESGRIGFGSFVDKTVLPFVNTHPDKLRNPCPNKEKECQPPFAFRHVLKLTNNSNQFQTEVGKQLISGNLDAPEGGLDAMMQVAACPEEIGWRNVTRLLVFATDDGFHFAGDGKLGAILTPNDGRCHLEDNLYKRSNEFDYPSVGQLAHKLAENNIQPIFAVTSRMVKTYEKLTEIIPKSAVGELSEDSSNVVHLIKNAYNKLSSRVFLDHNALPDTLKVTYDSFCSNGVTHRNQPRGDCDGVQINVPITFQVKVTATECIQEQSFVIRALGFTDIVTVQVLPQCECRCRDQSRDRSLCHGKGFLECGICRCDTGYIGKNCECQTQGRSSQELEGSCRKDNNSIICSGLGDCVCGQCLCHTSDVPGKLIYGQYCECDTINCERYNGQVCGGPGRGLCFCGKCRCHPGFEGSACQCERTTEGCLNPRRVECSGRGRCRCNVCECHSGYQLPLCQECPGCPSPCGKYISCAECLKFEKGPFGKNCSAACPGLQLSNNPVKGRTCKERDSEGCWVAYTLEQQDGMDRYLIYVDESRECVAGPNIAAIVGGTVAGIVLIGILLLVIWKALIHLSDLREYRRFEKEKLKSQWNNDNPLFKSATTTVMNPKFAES

target: Integrin beta-2 (Homo sapiens) + Integrin alpha-M (Homo sapiens) (UniProt P05107+P11215); assay: inhibitors of CD11b/CD18 adhesion to fibrinogen, primary screen, K562 cells, luminescence (AID 1497); conditions: ATPlite luminescence, at 10 µM, hits give high values, Mn2+ added to activate the integrin

Q: With CCOc1ncccc1C(=O)NCC1(N2CCOCC2)CCCCC1 as the compound, how does the inhibition read?
A: inactive: -17.2%

Q: With CCC(CO)(C(=O)OC1CN2CCC1CC2)c1ccccc1 (stereo not given) as the compound, how does the inhibition read?
A: inactive: 12.8%

Q: For Fc1ccccc1NC1CCN(Cc2ccccc2)CC1, which inhibition is on record?
A: inactive: 5%

Q: Which inhibition does the source give for c1ccc(CN2CCC(Nc3ccccc3)CC2)cc1 here?
A: inactive: -14.1%

Q: With N/C(=N\O)c1c(N)no[n+]1[O-] as the compound, how does the inhibition read?
A: inactive: -9%

Q: How did the inhibition turn out when N#CC1(Nc2ccccc2)CCN(CCc2ccccc2)CC1 was run?
A: inactive: 12.4%

Q: For O=C(NCC1(N2CCOCC2)CCCCC1)c1cc(=O)[nH]c2ccccc12, which inhibition is on record?
A: inactive: 18.7%

Q: COc1ccc(NC2CCN(CCc3ccccc3)CC2)c(OC)c1 was tested. Which inhibition did it give?
A: inactive: 5.1%

Q: How did the inhibition turn out when O=C(NCC1(N2CCOCC2)CCCCC1)c1cc2ccccc2o1 was run?
A: inactive: -12.3%

Q: How did the inhibition turn out when O=C(OC1CN2CCC1CC2)C1c2ccccc2Oc2ccccc21 (stereo not given) was run?
A: inactive: -7.4%
